# From patent US8729064B2, “Heteroaromatic and aromatic piperazinyl azetidinyl amides as monoacylglycerol lipase inhibitors” (Janssen Pharmaceutica, NV, priority 2009, dated 2014)
# Protein sequences, listed by entry. Tags and fused reporters are not part of them.
# UniProt Q99685, whole entry: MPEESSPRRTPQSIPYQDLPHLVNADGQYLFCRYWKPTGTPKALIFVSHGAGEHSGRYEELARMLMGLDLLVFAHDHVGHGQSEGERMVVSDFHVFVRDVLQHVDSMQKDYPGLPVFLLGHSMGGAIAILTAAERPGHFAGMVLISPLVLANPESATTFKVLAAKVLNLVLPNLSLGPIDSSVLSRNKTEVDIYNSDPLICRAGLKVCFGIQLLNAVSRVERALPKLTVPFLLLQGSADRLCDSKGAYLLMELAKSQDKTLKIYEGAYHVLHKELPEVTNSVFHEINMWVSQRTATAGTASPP
# Target: MGL activity in HeLa cell homogenate (Homo sapiens, UniProt Q99685)
# Experiment: 2-AG Accumulation Assay in HeLa cell homogenate
# Type: biochemical
# Conditions: 100 nM MAFP (positive control); about 3.4 pmol/sample in absence of MAFP
smiles,measurement,value
CCCCC/C=C\C/C=C\C/C=C\C/C=C\CCCCOP(=O)(F)OOC (stereo not shown),2-AG levels,174 pmol/sample
